Measured values: US8835467B2, “SIR2 regulation” (Albert Einstein College of Medicine of Yeshiva University, priority 2003, dated 2014)

System: T1, NC(=O)c1cccnc1
T1 construct: made in house
Experiment: purified protein, by the assay type
Assay type: biochemical, Saccharomyces cerevisiae
Conditions: other: yeast enzyme; saturating NAD+ and peptide; pH 7.8

Q: With “Yeast SIR2p (Saccharomyces cerevisiae S288C)” as the substance, how does the Km read?
A: 160 µM
